Test system: TNF-α
Assay: Rat assay: LPS-challenged rats, serum TNF-α by ELISA
Assay type: in vivo
Conditions: Table 9, dose 20 mg/kg

CC1CCCCN1CCCNc1cc(-c2c[nH]nc2-c2ccc(F)cc2)ccn1 (stereo not shown)
Rat LPS Assay % Inhibition: 56 (20) %

Source: patent publication US6525059B1, “Substituted pyrazoles as p38 kinase inhibitors” (G. D. Searle & Company, priority 1998, dated 2003)
